Measured values as given in publication PMC6504579 (Journal of immunology (Baltimore, Md. : 1950), 2019).

Type: in vitro ADME, human
Conditions: paired CD4 T cell cytosolic extracts, 37 °C, pH 7.4, LC-MS/MS

Question: For `CC[C@H](C)[C@H](NC(=O)[C@@H](NC(=O)[C@H](CCC(=O)O)NC(=O)[C@@H]1CCCN1C(=O)[C@H](CO)NC(=O)[C@H](Cc1ccccc1)NC(=O)[C@H](C)NC(=O)[C@H](CCCCN)NC(=O)[C@H](CCC(=O)O)NC(=O)[C@H](CCC(=O)O)NC(=O)[C@@H](NC(=O)[C@@H](NC(=O)[C@@H](N)CCCCN)C(C)C)C(C)C)C(C)C)C(=O)N1CCC[C@H]1C(=O)N[C@@H](CCSC)C(=O)N[C@@H](Cc1ccccc1)C(=O)N[C@@H](CO)C(=O)N[C@@H](C)C(=O)N[C@@H](CC(C)C)C(=O)O` [5-KF11–3], which “degradation rate of substrate in CD3/CD28-stimulated vs non-stimulated extracts” value is on record?
Answer: faster degradation rates
